One molecule from patent publication US4863949A, “Aminopropanol derivatives, processes for the preparation thereof, the use thereof and pharmaceutical compositions containing them” (Boehringer Mannheim GmbH, priority 1985, dated 1989) can be followed below.

For this test, the system named is livers. Briefly: denitration rate in perfused rat livers relative to isosorbide-5-mononitrate (nitrate-like action). On the set-up: species or system rats. Particulars: rat livers perfused 4 min, equimolar 5×10^-5 M/l; freed NO2 in perfusate; high = fast denitration.

Regarding `O=[N+]([O-])O[C@H]1CO[C@H]2[C@@H]1OC[C@H]2O[N+](=O)[O-]`, the “Vrel (denitration rate in relation to isosorbide-5-mononitrate)” value is 17,5.
